Biological target: T1, Aβ42 fibrils (Homo sapiens, UniProt P05067)
T1 construct: commercial Aβ42 peptide (AnaSpec or GL Biochem); purchased AnaSpec or GL Biochem
Assay: ThT control fluorescence turn-on assay with Aβ42 fibrils
Assay type: binding
Settings: [Aβ42] = 5 μM, em 485 nm, ex 435 nm
Description: Aβ42 and Aβ42 fibrils was used to control for soluble vs. insoluble amyloid.
text to prepare soluble and fibrillar Aβ42, the UV-vis absorbance was measured for the soluble
Aβ42 used in the control. In a cuvette, 100 μL o f [ A β42] = 20 μM. […]

Protein sequences, listed by entry. Tags and fused reporters are not part of them. Residues count along the entry.
UniProt P05067, 672-713 limits assumed: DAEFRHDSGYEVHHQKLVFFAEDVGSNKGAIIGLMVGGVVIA

Cc1ccc2c(c1)sc(-c1ccc(N(C)C)cc1)[n+]2C [ThT, Thioflavin T] showed a Kd of 6 nM.

From article PMC12156033, “N-Alkylamino Stilbene Compounds as Amyloid β Inhibitors for Alzheimer’s Disease Research” (Molecules, 2025)
